Target: T1, acetylcholinesterase (AchE) (Electrophorus electricus, UniProt O42275)
T1 construct: purchased Sigma (St. Louis, Mo.) Type VI-S (catalogue number not given)
Type: biochemical
Conditions: 10 inhibitor concentrations, 20 min at room temperature, choline formation; sigmoidal dose-response fit

Chains of the proteins cited; added tags and fusions are not shown. Residues count along the entry.
UniProt O42275, 24-633: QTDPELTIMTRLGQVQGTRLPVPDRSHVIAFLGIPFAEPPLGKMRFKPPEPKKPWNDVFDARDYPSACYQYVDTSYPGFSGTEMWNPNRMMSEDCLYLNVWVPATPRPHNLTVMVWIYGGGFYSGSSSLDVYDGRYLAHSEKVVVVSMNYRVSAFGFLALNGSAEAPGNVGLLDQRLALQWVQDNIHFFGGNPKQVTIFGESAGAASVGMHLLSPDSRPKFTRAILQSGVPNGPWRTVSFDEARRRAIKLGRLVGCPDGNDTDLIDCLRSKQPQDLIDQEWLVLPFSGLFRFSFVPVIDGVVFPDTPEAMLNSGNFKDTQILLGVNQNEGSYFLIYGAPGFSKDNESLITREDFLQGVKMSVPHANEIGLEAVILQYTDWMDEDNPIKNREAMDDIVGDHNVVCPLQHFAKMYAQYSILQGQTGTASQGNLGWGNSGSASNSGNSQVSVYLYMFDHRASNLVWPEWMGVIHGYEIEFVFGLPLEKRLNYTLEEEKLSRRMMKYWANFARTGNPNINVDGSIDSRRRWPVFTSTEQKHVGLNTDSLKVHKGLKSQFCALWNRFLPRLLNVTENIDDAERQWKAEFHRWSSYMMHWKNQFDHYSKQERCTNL

Compound CNC(=O)Oc1ccc2c(c1)[C@]1(C)CCN(C)[C@@H]1N2C [eserine] has an IC50 of 63 ± 13 nM.
